{
  "source": "patent US12427210B2",
  "about": "“Compounds comprising a fibroblast activation protein ligand and use thereof” (priority 2019, dated 2025)",
  "key": {"[1]": {"target": "Ubiquitin carboxyl-terminal hydrolase 10 (Homo sapiens (Human)) (UniProt Q14694)"}, "[2]": {"target": "Ubiquitin carboxyl-terminal hydrolase 14 (Homo sapiens (Human)) (UniProt P54578)"}, "[3]": {"target": "T1, Deubiquitinase OTUD6B (Homo sapiens (Human)) (UniProt Q8N6M0)", "T1 sequence": "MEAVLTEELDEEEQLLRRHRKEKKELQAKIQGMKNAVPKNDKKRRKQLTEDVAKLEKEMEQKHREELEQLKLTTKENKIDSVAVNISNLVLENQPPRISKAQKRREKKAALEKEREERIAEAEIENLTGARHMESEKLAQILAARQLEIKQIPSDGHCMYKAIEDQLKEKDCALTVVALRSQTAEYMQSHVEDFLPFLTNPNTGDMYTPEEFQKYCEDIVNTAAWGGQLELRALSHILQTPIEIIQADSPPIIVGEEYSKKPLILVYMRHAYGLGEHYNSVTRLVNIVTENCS"}, "[4]": {"target": "Ubiquitin carboxyl-terminal hydrolase 8 (Homo sapiens (Human)) (UniProt P40818)"}, "[5]": {"target": "T2, Ubiquitin carboxy-terminal hydrolase L3 (Homo sapiens (Human)) (UniProt P15374)", "T2 sequence": "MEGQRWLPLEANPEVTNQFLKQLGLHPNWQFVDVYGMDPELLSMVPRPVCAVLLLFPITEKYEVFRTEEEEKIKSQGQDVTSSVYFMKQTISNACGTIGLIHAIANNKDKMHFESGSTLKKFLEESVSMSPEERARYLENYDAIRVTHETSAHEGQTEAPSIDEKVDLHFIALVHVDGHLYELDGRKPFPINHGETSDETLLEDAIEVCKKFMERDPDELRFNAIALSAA"}, "[6]": {"target": "T3, Ubiquitin carboxyl-terminal hydrolase 5 (Homo sapiens (Human)) (UniProt P45974)", "T3 sequence": "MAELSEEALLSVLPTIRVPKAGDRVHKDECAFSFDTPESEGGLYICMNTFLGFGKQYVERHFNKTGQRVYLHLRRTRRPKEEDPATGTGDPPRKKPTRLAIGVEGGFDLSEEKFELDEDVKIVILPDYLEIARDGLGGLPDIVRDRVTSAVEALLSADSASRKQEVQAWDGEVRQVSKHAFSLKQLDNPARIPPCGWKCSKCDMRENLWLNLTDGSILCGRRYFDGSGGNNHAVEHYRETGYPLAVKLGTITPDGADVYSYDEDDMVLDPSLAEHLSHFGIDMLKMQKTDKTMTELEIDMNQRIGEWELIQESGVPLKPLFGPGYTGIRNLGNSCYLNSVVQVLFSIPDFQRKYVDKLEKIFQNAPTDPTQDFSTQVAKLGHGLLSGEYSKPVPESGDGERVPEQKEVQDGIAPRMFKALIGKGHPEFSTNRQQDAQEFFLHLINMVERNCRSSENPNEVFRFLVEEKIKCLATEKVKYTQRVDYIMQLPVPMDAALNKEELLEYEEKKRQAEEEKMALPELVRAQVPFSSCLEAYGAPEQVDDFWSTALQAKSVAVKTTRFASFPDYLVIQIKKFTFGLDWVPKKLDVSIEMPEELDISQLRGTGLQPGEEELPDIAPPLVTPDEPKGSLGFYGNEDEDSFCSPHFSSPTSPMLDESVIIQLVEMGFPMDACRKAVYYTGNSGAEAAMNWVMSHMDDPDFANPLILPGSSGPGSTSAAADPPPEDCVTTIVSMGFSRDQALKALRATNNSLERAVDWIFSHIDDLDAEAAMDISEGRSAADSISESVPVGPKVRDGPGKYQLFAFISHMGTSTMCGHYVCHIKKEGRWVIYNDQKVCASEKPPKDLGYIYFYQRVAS"}, "[7]": {"target": "T4, A20 (Homo sapiens (Human)) (UniProt P21580)", "T4 sequence": "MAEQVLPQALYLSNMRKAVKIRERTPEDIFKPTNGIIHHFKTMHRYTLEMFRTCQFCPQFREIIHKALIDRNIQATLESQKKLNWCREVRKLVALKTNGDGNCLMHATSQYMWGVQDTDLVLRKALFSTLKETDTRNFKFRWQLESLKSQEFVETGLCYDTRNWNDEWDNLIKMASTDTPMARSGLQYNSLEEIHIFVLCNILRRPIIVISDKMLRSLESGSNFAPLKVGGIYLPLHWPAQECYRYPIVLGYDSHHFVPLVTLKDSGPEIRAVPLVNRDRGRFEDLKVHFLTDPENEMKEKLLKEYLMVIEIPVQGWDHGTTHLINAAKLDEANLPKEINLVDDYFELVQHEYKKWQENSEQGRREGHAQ"}, "[8]": {"target": "T5, Ubiquitin carboxyl-terminal hydrolase 2 (Homo sapiens (Human)) (UniProt O75604)", "T5 sequence": "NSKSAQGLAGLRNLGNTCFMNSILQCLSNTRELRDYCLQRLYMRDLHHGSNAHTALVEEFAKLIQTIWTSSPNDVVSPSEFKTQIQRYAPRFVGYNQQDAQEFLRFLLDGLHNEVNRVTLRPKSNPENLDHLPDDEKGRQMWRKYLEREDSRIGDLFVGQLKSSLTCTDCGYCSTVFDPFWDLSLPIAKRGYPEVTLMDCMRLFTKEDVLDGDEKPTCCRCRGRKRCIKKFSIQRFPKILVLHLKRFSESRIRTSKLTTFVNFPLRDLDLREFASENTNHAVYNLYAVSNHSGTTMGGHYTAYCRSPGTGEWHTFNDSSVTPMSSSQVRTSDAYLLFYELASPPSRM"}, "[9]": {"target": "Ubiquitin carboxyl-terminal hydrolase 7 (Homo sapiens (Human)) (UniProt Q93009)"}},
  "data": [
    {"substance": "Ub-Aldehyde (from UniProt P0CG48)", "values": [
      {"measurement": "Percentage inhibition (%), Reference (% inhibition at 1 µM)", "setting": "[1]", "result": 82},
      {"measurement": "Percentage inhibition (%), Reference (% inhibition at 100 nM)", "setting": "[2]", "result": 96},
      {"measurement": "Percentage inhibition (%), Reference (% inhibition at 1 µM)", "setting": "[3]", "result": 97},
      {"measurement": "Percentage inhibition (%), Reference (% inhibition at 1 µM)", "setting": "[4]", "result": 73},
      {"measurement": "Percentage inhibition (%), Reference (% inhibition at 10 nM)", "setting": "[5]", "result": 95},
      {"measurement": "Percentage inhibition (%), Reference (% inhibition at 1 µM)", "setting": "[6]", "result": 84},
      {"measurement": "Percentage inhibition (%), Reference (% inhibition at 1 µM)", "setting": "[7]", "result": 99},
      {"measurement": "Percentage inhibition (%), Reference (% inhibition at 1 µM)", "setting": "[8]", "result": 91},
      {"measurement": "Percentage inhibition (%), Reference (% inhibition at 1 µM)", "setting": "[9]", "result": 95}
    ]}
  ]
}
